The values that follow come from PubChem BioAssay AID1216 (Sanford-Burnham Center for Chemical Genomics, 2008).

The chains behind the UniProt entries cited, without tags or fusion partners.
UniProt P34949, whole entry: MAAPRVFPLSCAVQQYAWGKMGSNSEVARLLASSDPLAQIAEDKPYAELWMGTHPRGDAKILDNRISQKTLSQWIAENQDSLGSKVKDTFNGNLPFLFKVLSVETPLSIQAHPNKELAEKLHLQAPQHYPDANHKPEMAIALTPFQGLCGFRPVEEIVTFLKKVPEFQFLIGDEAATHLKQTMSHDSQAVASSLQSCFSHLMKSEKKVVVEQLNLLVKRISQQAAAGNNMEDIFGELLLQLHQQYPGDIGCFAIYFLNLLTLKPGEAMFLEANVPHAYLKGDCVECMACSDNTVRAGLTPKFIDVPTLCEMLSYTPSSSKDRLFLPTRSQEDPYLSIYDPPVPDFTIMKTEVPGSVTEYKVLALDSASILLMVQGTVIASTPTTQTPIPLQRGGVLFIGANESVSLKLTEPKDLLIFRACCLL

This is a selection; strong and weak results do not stand in their true shares. Active and inactive are the calls of the source.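 Rule for the calls: active = activation factor of 2 or more at 20 µM; inactive = the rest.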

The experiment deals with Mannose-6-phosphate isomerase (Homo sapiens) (UniProt P34949). Put plainly: human PMI activators, high substrate, primary screen, biochemical, fluorescence intensity, near-saturating mannose 6-phosphate (AID 1216). The settings on record: coupled PMI enzyme assay, resazurin fluorescence, 20 min; at 20 µM; stronger effect = higher value; 1 = untreated enzyme, 0 = substrate-free blank. The essentials:
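Test system: human PMI in coupled enzyme assay; Input: PMI at 15 ng/mL final; Medium: HEPES buffer, pH 7.4; Schedule: 20 min incubation at room temperature; Technique: resorufin fluorescence at Ex 544/Em 590 nm; Compound: 20 µM single dose; Probe or stimulus: Near-saturating mannose-6-phosphate, 1.0 mM.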
(In general: The colour change of resazurin is a common sign of viable cells or microbes.)
Turning to `COc1ccc(C(=O)NCC2(N3CCOCC3)CCCCC2)cc1OC`, the activation factor was inactive: 1.1.
With `O=C(OC1CN2CCC1CC2)C1c2ccccc2C=Cc2ccccc21` (stereo not given) the figure was inactive: 1.
As for `N/C(=N\O)c1c(N)no[n+]1[O-]`, the activation factor was inactive: 1.1.
To `N#Cc1ccc(C(=O)NCC2(N3CCCCC3)CCCCC2)cc1` belongs inactive: 1.1; to `c1ccc(CN2CCC(Nc3ccccc3)CC2)cc1`, inactive: 0.8.
To `Fc1ccccc1NC1CCN(Cc2ccccc2)CC1` belongs inactive: 1.1; to `CN(C)c1ccc(C(=O)NCC2(N3CCCCC3)CCCCC2)cc1`, inactive: 1; to `CCN1CCC(Nc2cccc(F)c2)CC1`, inactive: 1.
With `CC(C)(C)OC(=O)N1CCC(Nc2ccccc2)CC1` the figure was inactive: 0.9.
For `CCOc1ncccc1C(=O)NCC1(N2CCOCC2)CCCCC1`, the activation factor is inactive: 1.
With `COc1cc(OC)cc(C(=O)NCC2(N3CCOCC3)CCCCC2)c1` the figure was inactive: 1.1; with `CCC(CO)(C(=O)OC1CN2CCC1CC2)c1ccccc1` (stereo not given), inactive: 1.
To `COc1ccc(C(=O)NCC2(N3CCCCC3)CCCCC2)c(OC)c1OC` belongs inactive: 1.1; to `O=C(OC1CN2CCC1CC2)C1c2ccccc2Oc2ccccc21` (stereo not given), inactive: 0.9.
With `CCOC(=O)N1CCC(Nc2ccc(OC)cc2)CC1` the figure was inactive: 0.9; with `O=C(NCC1(N2CCOCC2)CCCCC1)c1cc2ccccc2o1`, inactive: 1.
In the case of `COc1ccc(NC2CCN(CCc3ccccc3)CC2)c(OC)c1`, the activation factor is inactive: 0.5.
As for `N#CC1(Nc2ccccc2)CCN(CCc2ccccc2)CC1`, the activation factor was inactive: 1.
Regarding `O=C(NCC1(N2CCCCC2)CCCCC1)c1cccc([N+](=O)[O-])c1`, the activation factor was inactive: 1.1.
For the molecule `O=C(NCC1(N2CCOCC2)CCCCC1)c1cc(=O)[nH]c2ccccc12`, the activation factor is inactive: 1.
With `COc1ccc(NC2CCN(C(=O)OC(C)(C)C)CC2)cc1` the figure was inactive: 0.8; with `CN1CCN(CCOC(=O)C(O)(c2ccccc2)c2ccccc2)CC1`, inactive: 1.2; with `CC(C)c1ccc(NC2CCN(C(=O)OC(C)(C)C)CC2)cc1`, inactive: 0.7.
With `CN(C)c1cccc(C(=O)NCC2(N3CCCCC3)CCCCC2)c1`, the activation factor is inactive: 0.9.
With `COc1ccc(CN(CCCl)CCCl)cc1Cl` the figure was inactive: 0.7.
